Test results: ChEMBL document CHEMBL1201862, “PubChem BioAssay data set” (2004)
The list shows a part of the results. No stated cut-off is given here; in the data, active = GI50 up to about 1.1 µM and inactive = higher. These assays gave more results; the selection is not random.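 Values below derive from 48-hour exposures of cells grown in 96-well plates, with endpoints linearly interpolated between the two concentrations bracketing the appropriate inhibition level. GI50 = concentration required for 50% inhibition of growth.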 For some of these results: Measured potencies and affinities stand elsewhere.

Legend:
Experiment in all cases: NCI tumour cell line growth inhibition, 48 h
[1] = tested on: SF-539
[2] = tested on: SK-MEL-28
[3] = tested on: SK-MEL-2
[4] = tested on: SK-MEL-5
[5] = tested on: SK-OV-3
[6] = tested on: SN12C
[7] = tested on: SNB-19
[8] = tested on: SNB-75
[9] = tested on: SNB-78
[10] = tested on: SR

Row | Structure (SMILES) | GI50 [1] | GI50 [2] | GI50 [3] | GI50 [4] | GI50 [5] | GI50 [6] | GI50 [7] | GI50 [8] | GI50 [9] | GI50 [10]
1 | O=C1Nc2ccc([N+](=O)[O-])cc2/C1=N/Nc1ccc([N+](=O)[O-])cc1[N+](=O)[O-] | inactive: 21.8 µM | inactive: 22.1 µM | inactive: 46.5 µM | inactive: 19.5 µM | inactive: 34 µM | inactive: 33 µM | inactive: 20.1 µM | inactive: 44.5 µM | inactive: 31.3 µM | inactive: 28.4 µM
2 | Cc1ccc2ccc3ccc4ccccc4c3c2c1.O=C1c2cc([N+](=O)[O-])ccc2-c2c1cc([N+](=O)[O-])cc2[N+](=O)[O-] | inactive: 3.66 µM | inactive: 7.14 µM | inactive: 1.26 µM | inactive: 2.73 µM | inactive: 12.1 µM | inactive: 4.47 µM | inactive: 7.89 µM | inactive: 2.61 µM | – | active: 0.989 µM
3 | CC1=CC2O[C@@H]3C[C@H]4OC(=O)/C=C\C=C\C56OCCC7(OC7C(=O)OC[C@@]2(CC1)[C@]4(C)[C@]31CO1)C5OC(O)C6O (some centres not stated) | – | – | – | active: < 0.001 µM | – | – | active: 0.00159 µM | – | – | –
4 | COP(C)(=O)C(N)Cc1ccccc1 (configuration not stated) | – | inactive: > 100 µM | inactive: > 100 µM | inactive: 71.8 µM | inactive: > 100 µM | inactive: > 100 µM | inactive: > 100 µM | inactive: > 100 µM | – | inactive: > 100 µM
5 | COc1ccc(C[N+](C)(CCCl)CCCl)c([N+](=O)[O-])c1 | inactive: > 100 µM | inactive: > 100 µM | inactive: > 100 µM | inactive: 27.7 µM | inactive: > 100 µM | inactive: > 100 µM | inactive: > 100 µM | inactive: > 100 µM | – | inactive: 8.61 µM
6 | O=[As](O)(O)O | inactive: > 100 µM | inactive: > 100 µM | inactive: > 100 µM | inactive: > 100 µM | inactive: > 100 µM | inactive: > 100 µM | inactive: > 100 µM | inactive: > 100 µM | – | inactive: > 100 µM
7 | O=[N+]([O-])C1([N+](=O)[O-])CCCc2nonc21 | inactive: 39.8 µM | inactive: > 100 µM | inactive: 47.3 µM | inactive: 40.8 µM | inactive: > 100 µM | inactive: 37.2 µM | inactive: > 100 µM | inactive: 59.3 µM | – | inactive: 26.5 µM
8 | O[C@H]1[C@@H](O)CC2CCN3Cc4cc5c(cc4[C@H]1C23)OCO5 (some centres not stated) | inactive: > 100 µM | inactive: > 100 µM | – | – | inactive: > 100 µM | inactive: > 100 µM | inactive: > 100 µM | inactive: > 100 µM | inactive: > 100 µM | inactive: > 100 µM
9 | COc1ccc2nccc(C=O)c2c1 | active: 0.379 µM | inactive: 4.66 µM | inactive: 20.5 µM | inactive: 2.38 µM | inactive: 20.7 µM | inactive: 2.31 µM | inactive: 2.22 µM | inactive: 14.6 µM | – | active: 0.025 µM
10 | Cc1ccc([N+](=O)[O-])c(C[N+](C)(CCCl)CCCl)c1 | inactive: 22.9 µM | inactive: 27 µM | inactive: 26.9 µM | inactive: 10.4 µM | inactive: 37.2 µM | inactive: 11.6 µM | inactive: 20.6 µM | inactive: 22.9 µM | – | inactive: 2.48 µM
11 | O=C1CCN2CCCC12 (configuration not stated) | – | inactive: > 100 µM | inactive: > 100 µM | inactive: > 100 µM | – | inactive: > 100 µM | inactive: > 100 µM | inactive: > 100 µM | – | inactive: > 100 µM
12 | CCCC[S+](N)(=O)CCC(N)P(=O)(O)O (configuration not stated) | – | inactive: 64 µM | inactive: > 100 µM | inactive: > 100 µM | inactive: > 100 µM | inactive: > 100 µM | inactive: > 100 µM | inactive: > 100 µM | – | inactive: 10 µM
